According to ChEMBL document CHEMBL5500414 (J Med Chem, 2024):
Calls of active or inactive are those of the source.

Assays:
Type in all cases: functional, cell-based
Settings in all cases: dose 0.03-3 µM
MV4-11 [1] = experiment: Induction of apoptosis in BFL-1 overexpressing isogenic human MV4-11 cells assessed as increase in cytochrome c release in mitochondria at 0.03 to 3 uM in presence of doxycycline by Western blot analysis
MOLM-13 [2] = experiment: Induction of apoptosis in BFL-1 overexpressing isogenic human MOLM-13 cells assessed as increase in cleaved PARP level at 0.03 to 3 uM in presence of doxycycline by Western blot analysis
MV4-11 [3] = experiment: Induction of apoptosis in BFL-1 overexpressing isogenic human MV4-11 cells assessed as increase in cleaved PARP level at 0.03 to 3 uM in presence of doxycycline by Western blot analysis
MOLM-13 [4] = experiment: Induction of apoptosis in BFL-1 overexpressing isogenic human MOLM-13 cells assessed as increase in cytochrome c release in mitochondria at 0.03 to 3 uM in presence of doxycycline by Western blot analysis

Measured: Activity

CC1(C)CCC(CN2CCN(c3ccc(C(=O)NS(=O)(=O)c4ccc(NCC5CCOCC5)c([N+](=O)[O-])c4)c(Oc4cnc5[nH]ccc5c4)c3)CC2)=C(c2ccc(Cl)cc2)C1 [VENETOCLAX]
inactive: all assays above
